Laboratory results as given in ChEMBL document CHEMBL4118120, “Identification of a novel selective small-molecule inhibitor of protein arginine methyltransferase 5 (PRMT5) by virtual screening, resynthesis and biological evaluations” (Bioorg Med Chem Lett, 2018).

Tested on: MV4-11
Experiment: Antiproliferative activity against human MV411 cells after 4 days by Celltiiter-Glo luminescence cell viability assay
Format: functional, cell-based

Structure (SMILES): COc1ccc(-c2csc(Nc3ccc(O)c(C(=O)O)c3)n2)cc1C
- Activity: Dose-dependent effect
